Experimental findings from US20240343733A1, “COMPOUNDS FOR TARGETING DEGRADATION OF IRAK4 PROTEINS” (BIOGEN MA INC., priority 2021, published 2024) are described below.

The chains behind the UniProt entries cited, without tags or fusion partners.
UniProt Q9NWZ3, whole entry: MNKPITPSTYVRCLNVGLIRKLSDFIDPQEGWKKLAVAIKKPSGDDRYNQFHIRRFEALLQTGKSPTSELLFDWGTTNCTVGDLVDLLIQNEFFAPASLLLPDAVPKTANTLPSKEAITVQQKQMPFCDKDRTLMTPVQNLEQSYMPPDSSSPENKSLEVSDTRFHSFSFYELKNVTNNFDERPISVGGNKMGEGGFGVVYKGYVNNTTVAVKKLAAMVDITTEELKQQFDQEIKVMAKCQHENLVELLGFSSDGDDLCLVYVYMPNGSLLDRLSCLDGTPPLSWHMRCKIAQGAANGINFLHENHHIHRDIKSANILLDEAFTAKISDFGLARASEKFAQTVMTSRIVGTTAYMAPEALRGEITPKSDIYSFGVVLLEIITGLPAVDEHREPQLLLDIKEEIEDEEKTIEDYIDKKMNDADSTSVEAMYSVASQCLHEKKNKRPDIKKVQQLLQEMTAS

In this test the target is IRAK4 (Homo sapiens, UniProt Q9NWZ3). The test can be described thus: IRAK4 Degradation Assay, HiBiT Method. Particulars: 293T cells expressing HiBiT-tagged IRAK4, 6 hours. (With HiBiT, luminescence reflects the tagged protein that the partner subunit can reach.)

One may read the DC50 as the concentration at which degradation of the target reaches its halfway point. Read a high DC50 as degradation only at high concentration. Consider `CC(C)Oc1cc2nn([C@H]3CC[C@H](CNC4CCN(c5ncc(C6CCC(=O)NC6=O)cc5F)CC4)CC3)cc2cc1C(=O)Nc1cccn(C2CC2)c1=O` (some centres unmarked) [Example 125, N-(1-cyclopropyl-2-oxo-1,2-dihydropyridin-3-yl)-2-((1r,4r)-4-(((1-(5-(2,6-dioxopiperidin-3-yl)-3-fluoropyridin-2-yl)piperidin-4-yl)amino)methyl)cyclohexyl)-6-isopropoxy-2H-indazole-5-carboxamide], for which the DC50 is < 10 nM. For the molecule `CC(C)Oc1cc2nc(C3CCN(CC(=O)N4CCN(c5cc6c(cc5F)c(N5CCC(=O)NC5=O)nn6C)CC4)CC3)cn2cc1C(=O)Nc1cccc(C(F)(F)F)n1`, the DC50 lay within 10 to 100 nM.
